## Apparent affinities of Ab-14 variants for a coronavirus HR2 peptide

From the AlphaSeq antibody data of Li et al. 2023 (doi:10.1038/s41467-023-39022-2), copy in the FLAb collection.

Target peptide (SARS-CoV-2 spike, HR2 region): PDVDLGDISGINAS

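The variants were designed computationally from a first round of random CDR variants and then made and measured. Several design methods are mixed in this list. In AlphaSeq, yeast of one mating type display the scFv and yeast of the other type display the target. Mating (16 h, 30 °C) was followed by selection of diploids and sequencing of their barcodes. A regression on co-assayed BCL2-family reference pairs converts the normalised counts of each replicate to an apparent Kd. Each pool was mated in six replicate cultures.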

Parent scFv Ab-14: VH joined to VL by the linker GGGGSGGGGSGGGGS. Changes lie in the heavy chain CDRs alone.
VH: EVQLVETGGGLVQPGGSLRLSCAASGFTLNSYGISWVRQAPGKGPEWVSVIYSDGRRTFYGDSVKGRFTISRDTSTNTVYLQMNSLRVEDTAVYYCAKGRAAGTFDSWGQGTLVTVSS
VL: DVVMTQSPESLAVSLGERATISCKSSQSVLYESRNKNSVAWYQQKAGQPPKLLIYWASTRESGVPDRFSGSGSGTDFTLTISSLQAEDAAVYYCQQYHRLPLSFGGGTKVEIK

Each variant is given by its three heavy chain CDRs, as the data file delimits them; those of the parent are GFTLNSYGIS, VIYSDGRRTFYGDSVK, GRAAGTFDS.
Each Kd is an estimate from the mating assay, the geometric mean of the replicates in which the pair was seen; lower is stronger.
An entry "no signal" has no value in the source: the pair was not observed among the diploids in any replicate. This suggests poor binding but is not conclusive.

CDR-H1	CDR-H2	CDR-H3	Kd	replicates with signal	control signals
GFNLDEYGIS	VIYADGQRTFYADSVK	GQVAGTFDS	300 pM	6 of 6	0 of 18
GFDLNEYGIS	VIYADGVRTQYIDSVK	GNEAGTFDS	1.3 nM	6 of 6	0 of 18
GFDIEEYGIS	VIYADGYRQAYKQKVK	GQIAGGQFD	no signal	0 of 6	0 of 18
GFNLNSYGIS	VIYSDGRRTAYGDSVK	GQAAGTFDS	3.4 nM	6 of 6	0 of 18
GFELNSYGIS	VIYSDGRRTAYGDSVK	GRNAGTFDS	2.5 nM	6 of 6	0 of 18
GFTLNQYGIS	VIYSDGRRTFYSDSVK	GRAGGMDDS	620 pM	6 of 6	2 of 18
GFTLDSYGIS	VIYSDGRRTFYGDSVK	GRAAVTFDQ	no signal	0 of 6	0 of 18
GFTLNSYGIS	VIYSDGRRTFYGDSVK	IEAAGTFDS	18 nM	1 of 6	0 of 18
GFTLNSYGIS	VIYSDGRRTFYGDSVK	GKQAGTFDT	32 nM	5 of 6	0 of 18
GFDLDEYGIS	VIYADGKRTAYADSVK	GNEAGTFDI	650 pM	6 of 6	0 of 18
GFDLNEYGIS	VIYADGRRTAYIDSVK	GEAAGTFDK	2.8 nM	6 of 6	0 of 18
GFTLDSYGIS	VIYSDGRRTFYADSVK	GRTAGTFDS	2.4 nM	6 of 6	0 of 18
GFTLDSYGIS	VIYSDGRRTFYGDSVK	SRAAGTFDS	no signal	0 of 6	0 of 18
GFTLESYGIS	VIYADGRRTFYGDSVK	GQAAGTFDS	380 pM	6 of 6	0 of 18
GFTLNQYGIS	VIYSDGKRTFYSDSVK	GRAAGFFDS	no signal	0 of 6	1 of 18
GFDLNSYGIS	VIYIDGRATFQGISVK	GRAAGWFNS	no signal	0 of 6	1 of 18
GFTLNEYGIS	VIYSDGRRTFYKDSVK	GRQAGTFDS	3.6 nM	6 of 6	1 of 18
GFQLNEYGIS	VIYADGIRSEYADKVK	GGINSSFGV	no signal	0 of 6	0 of 18
GFDLNEYGIS	VIYADGRRTFYSDSVK	GNVGGSFDV	650 pM	6 of 6	0 of 18
GFQLNSYGIS	VIYSDGRRTFYQDSVK	GRNAGTFDS	17 nM	3 of 6	0 of 18
GFTLQSYGIS	VIYSDGRRTFYGDSVK	GEAAGTFDS	60 nM	4 of 6	0 of 18
GSDLNEYGIS	VIYADGKRSYYTDSVK	GGYNIGASV	45 nM	6 of 6	0 of 18
GFELNMYGIS	VIYSDGRRTFYHDSVK	GREAGTFDS	2.1 nM	6 of 6	0 of 18
GFDLNEYGIS	VIYADGVRTFYADNVK	GNVAGTFDQ	180 pM	6 of 6	1 of 18
GFTLNQYGIS	VIYSDGRRTFYGDSVK	GFAAGTFDS	21 nM	1 of 6	0 of 18
GFTLNSYGIS	VIYSDGRRTFYGDSVK	EHAAGTFDS	3.6 nM	1 of 6	0 of 18
GFDLNEYGIS	VIYADGRRTFYIDSVK	GNAAGTFDS	250 pM	6 of 6	1 of 18
GFALNEYGIS	VIYSDGRRTMYGDSVK	GRNAGTFDS	7.5 nM	6 of 6	0 of 18
GFDLNEYGIS	VIYADGQRTFYADSVK	GNVAGTFDQ	720 pM	6 of 6	1 of 18
GFDLNEYGIS	VIYADGMRTAYADDVK	GNIAGTFDV	420 pM	6 of 6	0 of 18
GFWLNEYGIS	VIYSDGRRTFYTDSVK	GRAAGNFDS	no signal	0 of 6	0 of 18
GFDLDEYGIS	VIYADGMRTFYQDSVK	GNVAGTFDS	1.1 nM	6 of 6	0 of 18
SFTLNSYGIS	VIYADGRRTFYGDSVK	GQAAGTFDS	3.4 nM	6 of 6	0 of 18
GFDINEYGIS	VMYADGSRSVYQDNVK	GFQGGTLDM	110 nM	1 of 6	1 of 18
GFKLNSYGIS	VIYSDGRRTFYGDSVK	GVEAGTFDS	4.9 nM	6 of 6	1 of 18
GFDLNEYGIS	VIYADGRRTAYADDVK	GEVAGTFDI	4.9 nM	6 of 6	0 of 18
GFELNMYGIS	VIYSDGRRTFYGDSVK	GQAAGTFDT	5.9 nM	6 of 6	0 of 18
GNTLDEYGIS	VIYADGMRKAYKNKFK	GMVTGTFDQ	no signal	0 of 6	0 of 18
GFTLNSYGIS	VIYSDGKRTFYSDSVK	GRAGGTFDS	2.2 nM	6 of 6	0 of 18
GFTLNSYGIS	VIYSDGRRTFYDDSVK	GQLAGTFDL	19 nM	4 of 6	0 of 18
GFTLNEYGIS	VIYSDGHRTFYSDSVK	GRAAGTFDS	250 nM	5 of 6	0 of 18
GFTLNSYGIS	VIYSDGRRTFYGDDVK	GRLAGTADS	no signal	0 of 6	1 of 18
GFSLNKYGIS	VIYSDGRRTFYGDSVK	GREAGTFDS	220 pM	6 of 6	0 of 18
GFTLNSYGIS	VIYSDGRRTFYGDSVK	GQAHGTFDS	no signal	0 of 6	0 of 18
GFGLNSYGIS	VIYSDGRRTFYQDSVK	GKAAGTFDS	22 nM	3 of 6	0 of 18

Nonspecific signal, from three strains lacking the peptide, appeared in 1% of pairings of all heavy chain designs, centred on 120 nM (5% of these signals below 7.0 nM); values are not corrected for it. For each scFv, signals with the empty controls are counted beside the result.
Values of this round are not directly comparable with the first-round values of the same sequences.
The authors averaged sequences with at least three values out of six and counted those with two or fewer as poor binders.